The text below walks through data of patent publication US20250288536A1, “PROTEIN PARTICLES INCLUDING AN ACTIVE AGENT AND METHODS OF MAKING AND USING THE SAME” (Dairy Mangement Inc., priority 2022, published 2025).

The nature of this series: Particle size, particle size distribution and PDI by DLS (Example 6). The format is physicochemical. Particulars: pH 11, with HPH.

Substance α-lactalbumin displayed a mean particle size of around 280 nm.
